Amino acid sequences for entries named in this document (tags omitted).
UniProt P35372, whole entry: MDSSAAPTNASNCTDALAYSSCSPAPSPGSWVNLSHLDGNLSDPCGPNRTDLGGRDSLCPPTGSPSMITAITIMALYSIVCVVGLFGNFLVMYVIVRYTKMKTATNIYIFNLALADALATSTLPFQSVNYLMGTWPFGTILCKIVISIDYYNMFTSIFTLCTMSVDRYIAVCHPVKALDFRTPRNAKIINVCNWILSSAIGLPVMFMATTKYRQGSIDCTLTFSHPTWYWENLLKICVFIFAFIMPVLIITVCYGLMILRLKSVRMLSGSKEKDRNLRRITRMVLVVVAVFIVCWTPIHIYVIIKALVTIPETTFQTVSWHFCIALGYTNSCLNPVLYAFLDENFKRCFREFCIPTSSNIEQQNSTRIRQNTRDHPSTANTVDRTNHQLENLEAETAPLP

According to US20110112129A2, “Peripheral Phenolic Opioid Antagonist” (published 2011):

Columns and labels:
[1] = molecular target: T1, μ opioid receptor (Homo sapiens, UniProt P35372); assay: Cellular cAMP HTRF assay, antagonism of DAMGO at human μ opioid receptor expressed on CHO cells; details: read-out: IC50 for antagonizing the action of DAMGO (cAMP); 30 nM DAMGO; human μ opioid receptor on Chinese hamster ovary cells; cAMP by HTRF
[2] = molecular target: T1, μ opioid receptor; assay: μ opioid receptor binding (methods of Wang et al. 1994); details: read-out: IC50 of binding to the μ opioid receptor; N-MDPN prepared as described in Example 1

## CO[C@]12CC[C@@]3(C[C@@H]1C(C)(C)O)[C@H]1Cc4ccc(O)c5c4[C@@]3(CC[N@+]1(C)CC1CC1)[C@H]2O5
[1]
  pIC50: 6.51
[2]
  pIC50: 8.38

pIC50: −log10 of the molar value.
